We go through 57 compounds from PubChem BioAssay AID2563 (Broad Institute, 2010).

The chains behind the UniProt entries cited, without tags or fusion partners.
UniProt Q03530, whole entry: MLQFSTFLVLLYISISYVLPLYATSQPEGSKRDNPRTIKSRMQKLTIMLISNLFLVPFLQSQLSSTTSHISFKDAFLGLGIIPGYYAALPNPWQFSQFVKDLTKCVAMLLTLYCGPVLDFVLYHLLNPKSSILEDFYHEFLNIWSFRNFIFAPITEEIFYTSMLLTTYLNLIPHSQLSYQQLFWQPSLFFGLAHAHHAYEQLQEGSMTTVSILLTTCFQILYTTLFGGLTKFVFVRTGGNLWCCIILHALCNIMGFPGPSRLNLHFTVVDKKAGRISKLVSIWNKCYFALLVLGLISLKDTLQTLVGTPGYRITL

The list shows a part of the results, in another mix than the full data. Activity calls are given as the source filed them.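 The calls were made as follows: active = fall in fluorescence gain of 50% or more versus controls, with final raw signal at or below 3038400; inconclusive = same 50% fall but final raw signal above 3038400; inactive = fall in fluorescence gain under 50%.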

In the test the target is CAAX prenyl protease 2 (Saccharomyces cerevisiae (strain ATCC 204508 / S288c)) (UniProt Q03530). Put plainly: yeast Rce1p protease inhibitors, primary screen, biochemical, fluorescence, cell-free homogeneous (AID 2563). Conditions: yeast membranes, quenched prenylated peptide cleavage fluorescence.
On to `O=C(NCC1(N2CCCCC2)CCCCC1)c1cccc([N+](=O)[O-])c1`, for which the outcome was inactive.

For `N#CC1(Nc2ccccc2)CCN(CCc2ccccc2)CC1`, the compound was classed as inactive.

In the case of `CCN1CCC(Nc2ccc(Cl)cc2)CC1`, the compound was called inactive.

Turning to `O=C(NCC1(N2CCCCC2)CCCCC1)c1ccc(OC(F)F)cc1`, the call was inactive.

With `CN1CCN(CCOC(=O)C(O)(c2ccccc2)c2ccccc2)CC1`, the call was inactive.

As to `COc1ccc(NC2CCN(C(=O)OC(C)(C)C)CC2)cc1`, the result was inactive.

For the compound `COc1cc(C(=O)NCC2(N3CCCCC3)CCCCC2)ccc1OC(F)F`, the outcome was inactive.

For `O=C(NCC1(N2CCOCC2)CCCCC1)c1cc(=O)[nH]c2ccccc12`, the compound was classed as inactive.

Turning to `O=C(NCC1(N2CCCCC2)CCCCC1)c1cccc(C(F)(F)F)c1`, the compound was classed as inactive.

For `COc1cc(OC)c(C(=O)NCC2(N(C)C)CCCCC2)cc1OC`, the compound was classed as inactive.

On to `CN(C)c1cccc(C(=O)NCC2(N3CCCCC3)CCCCC2)c1`, for which the call was inactive.

For the compound `COc1ccc(CN(CCCl)CCCl)cc1Cl`, the result was inactive.

Turning to `CC(C)c1ccc(NC2CCN(C(=O)OC(C)(C)C)CC2)cc1`, the call was inactive.

`CCCOc1ccc(C(=O)NCC2(N(C)C)CCCCC2)cc1OC`: the outcome was inactive.

Take `CN1CCC(Nc2cccc(F)c2)CC1`: the outcome was active.

Consider `O=C(NCC1(N2CCCCC2)CCCCC1)c1cccs1`, for which the compound was called inactive.

Turning to `O=C(NCC1(N2CCCCC2)CCCCC1)c1ccc(=O)[nH]c1`, the call was inactive.

For `CC(C)(C)OC(=O)N1CCC(N(C(=O)c2ccccc2)c2ccc(F)cc2)CC1`, the compound was called inactive.

As to `COc1ccc(C(=O)NCC2(N3CCCCC3)CCCCC2)c(OC)c1OC`, the call was inactive.

With `COc1ccc(C(=O)NCC2(N3CCCCC3)CCCCC2)cc1`, the outcome was inactive.

`CCOC(=O)N1CCC(Nc2ccc(OC)cc2)CC1`: the outcome was inactive.

For `N#CC1(Nc2ccccc2)CCN(Cc2ccccc2)CC1`, the compound was classed as inactive.

Regarding `O=C(OC1CN2CCC1CC2)C1c2ccccc2Oc2ccccc21` (configuration not stated), the result was inactive.

Turning to `O=C(NCC1(N2CCOCC2)CCCCC1)c1cc2ccccc2o1`, the outcome was inactive.

As to `Cc1cc(C)cc(N(C(=O)c2ccccc2)C2CCN(C(=O)OC(C)(C)C)CC2)c1`, the compound was called inactive.

As for `O=C(NCC1(N2CCCCC2)CCCCC1)c1ccc(Cl)nc1`, the call was inactive.

With `COc1ccc(NC2CCN(CCc3ccccc3)CC2)c(OC)c1`, the compound was called inactive.

Consider `CCOC(=O)N1CCC(Nc2ccc(F)cc2)CC1`, for which the compound was called inactive.

Take `O=C(NCC1(N2CCCCC2)CCCCC1)c1ccc(F)cc1`: the result was inactive.

On to `CCOc1ccc(C)cc1CN(CCCl)CCCl`, for which the outcome was inactive.

`Cc1ccc(OCC(C)C)c(CN(CCCl)CCCl)c1`: the outcome was inactive.

Turning to `CCOC(=O)N1CCC(Nc2cccc(C)c2)CC1`, the call was inactive.

Turning to `COc1cc(C(=O)NCC2(N(C)C)CCCCC2)ccc1OC(F)F`, the compound was classed as inactive.

For the compound `Fc1ccccc1NC1CCN(Cc2ccccc2)CC1`, the result was inactive.

On to `Cc1ccc(C(=O)NCC2(N3CCCCC3)CCCCC2)o1`, for which the compound was classed as inactive.

On to `COc1cc(OC)cc(C(=O)NCC2(N3CCCCC3)CCCCC2)c1`, for which the call was inactive.

As for `CN(C)c1ccc(C(=O)NCC2(N3CCCCC3)CCCCC2)cc1`, the result was inactive.

As for `CCN1CCC(Nc2cccc(F)c2)CC1`, the call was inactive.

As to `CCCOc1ccc(C(=O)NCC2(N(C)C)CCCCC2)cc1`, the outcome was inactive.

In the case of `O=C(O)C1(Nc2ccccc2)CCN(Cc2ccccc2)CC1`, the compound was called inactive.

For `CC(C)(C)OC(=O)N1CCC(Nc2ccccc2)CC1`, the outcome was inactive.

As to `CN1CCC(Nc2ccc(F)c(Cl)c2)CC1`, the compound was classed as inactive.

Regarding `CCCOc1ccc(C)cc1CN(CCCl)CCCl`, the compound was classed as inactive.

As for `CN1CCC(Nc2ccc(Cl)cc2)CC1`, the result was inactive.

With `CCC(CO)(C(=O)OC1CN2CCC1CC2)c1ccccc1` (configuration not stated), the compound was called inactive.

As for `COc1cc(OC)cc(C(=O)NCC2(N3CCOCC3)CCCCC2)c1`, the compound was classed as inactive.

In the case of `COc1cccc(C(=O)N(c2cc(C)cc(C)c2)C2CCN(C(=O)OC(C)(C)C)CC2)c1`, the compound was called inactive.

`COc1ccc(C(=O)NCC2(N3CCOCC3)CCCCC2)cc1OC`: the call was inactive.

With `CCc1cc(C(=O)NCC2(N3CCCCC3)CCCCC2)sc1C`, the result was inactive.

For the compound `O=C(OC1CN2CCC1CC2)C1c2ccccc2C=Cc2ccccc21` (configuration not stated), the compound was called inactive.

`N/C(=N\O)c1c(N)no[n+]1[O-]`: the compound was called inactive.

As to `CCOC(=O)N1CCC(Nc2ccc(C)cc2)CC1`, the compound was classed as inactive.

On to `CC(C)(C)OC(=O)N1CCC(N(C(=O)c2ccccc2)c2ccc(Cl)cc2)CC1`, for which the call was inactive.

Turning to `N#Cc1ccc(C(=O)NCC2(N3CCCCC3)CCCCC2)cc1`, the compound was classed as inactive.

As to `CCCN1CCC(Nc2cc(OC)cc(OC)c2)CC1`, the outcome was inactive.

In the case of `c1ccc(CN2CCC(Nc3ccccc3)CC2)cc1`, the outcome was inactive.

For the compound `CN(C)C1(CNC(=O)c2cccc(C#N)c2)CCCCC1`, the outcome was inactive.
